Data: patent publication US6737397B1, “Control of cancer growth through the interaction of [MET5]-enkephalin and the zeta receptor” (The Penn State Research Foundation, priority 1996, dated 2004)
Counter-ions that a name gives are not always drawn. Like-named read-outs stand apart in the source and are kept apart here.

Biological target: T1, ζ-opioid receptor (Homo sapiens, UniProt Q9NZT2)
T1 sequence (Q9NZT2 1-677): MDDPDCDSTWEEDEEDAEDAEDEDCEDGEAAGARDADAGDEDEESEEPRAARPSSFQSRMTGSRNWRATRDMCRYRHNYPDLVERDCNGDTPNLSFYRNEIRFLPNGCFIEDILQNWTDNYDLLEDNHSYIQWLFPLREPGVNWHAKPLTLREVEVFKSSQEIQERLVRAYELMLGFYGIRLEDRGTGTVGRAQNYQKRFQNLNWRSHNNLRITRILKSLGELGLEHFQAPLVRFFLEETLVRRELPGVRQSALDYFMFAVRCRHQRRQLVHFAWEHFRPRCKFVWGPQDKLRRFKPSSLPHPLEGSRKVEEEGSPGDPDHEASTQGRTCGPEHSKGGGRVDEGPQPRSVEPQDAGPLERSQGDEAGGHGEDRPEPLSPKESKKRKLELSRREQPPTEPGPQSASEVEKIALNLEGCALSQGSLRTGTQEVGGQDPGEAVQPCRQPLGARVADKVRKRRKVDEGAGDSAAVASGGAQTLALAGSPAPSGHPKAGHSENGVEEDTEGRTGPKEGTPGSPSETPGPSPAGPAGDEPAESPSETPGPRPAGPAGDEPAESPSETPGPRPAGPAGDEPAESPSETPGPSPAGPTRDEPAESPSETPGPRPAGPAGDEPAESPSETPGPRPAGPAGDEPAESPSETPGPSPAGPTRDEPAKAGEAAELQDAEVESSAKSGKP
Experiment: Competition for binding of [3H][Met5]enkephalin (4.0 nM) in nuclear homogenates of HT-29 human colon tumors
Parameters: from tissue; host or cells: HT-29 human colon tumor xenografts grown in athymic nude mice; nuclear (P1) and other subcellular fractions

Row | Structure (SMILES) | IC50 | Ki | IC50 (4.0 nM [3H][Met5]enkephalin) | Ki (calculated from IC50 by Cheng and Prusoff) | more potent than (+)-naloxone in displacing [3H]-[Met5]-enkephalin (stereoisomers)
1 | C=CCN1CC[C@@]23c4c5ccc(O)c4O[C@@H]2C(=O)CC[C@]3(O)[C@@H]1C5 [(+)-Naloxone hydrochloride, (+)-naloxone hydrochloride] | > 10000 nM | > 10000 nM |  |  | 
2 | C=CCN1CC[C@]23c4c5ccc(O)c4O[C@H]2C(=O)CC[C@@]3(O)[C@H]1C5 [naloxone] |  |  | 115 ± 5 nM | 88.5 ± 3.9 nM | 100,000 fold
